Reference: PubChem BioAssay AID602247 (The Scripps Research Institute Molecular Screening Center, 2012)
Only a part is listed here, and it is no random draw. Some results for these compounds are left out of this collection, so the calls shown say nothing about other tests. Active and inactive are the calls of the source.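 Rule for the calls: active = activation above the run cutoff, the mean activation of all test compounds plus 3 SD (cut at about 40% in these data); inactive = the rest.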

experiment: ATP EC20 calcium response enhancers, parental CHO-K1 – cell-based, Fluo-8 calcium fluorescence, full deck, 1536-well, counter-screen for M1 PAM project, primary screen (AID 602247); conditions: parental CHO-K1, ATP EC20, Fluo-8 calcium fluorescence; at 3 µM; active compounds read high; 0% at ATP EC20, 100% at ATP max;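 note: peak over basal fluorescence ratio in a 140 s read after ATP addition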

Row | SMILES | activation
1 | CCN1CCCC(OC(=O)C2(O)c3ccccc3C=Cc3ccccc32)C1 (stereo unspecified) | inactive: 13.4%
2 | Cc1cc(C(=O)NCC2(N3CCCCC3)CCCCC2)ccc1[N+](=O)[O-] | inactive: 19%
3 | O=C(NCC1(N2CCCCC2)CCCCC1)c1cccc(Br)c1 | inactive: 19%
4 | COc1ccc(C(=O)NCC2(N(C)C)CCCCC2)cc1 | inactive: -7.21%
5 | C=CCN1CCN(CCOC(=O)C(O)(c2ccccc2)c2ccccc2)CC1 | inactive: 11.3%
6 | O=C(NCC1(N2CCCCC2)CCCCC1)c1cc(F)c(F)cc1Cl | inactive: -4.08%
7 | Cc1ccccc1C(=O)NCC1(N2CCCCC2)CCCCC1 | inactive: 19.4%
8 | CN(C)c1ccc(C(=O)NCC2(N(C)C)CCCCC2)cc1 | inactive: 17.7%
9 | CN(C)C1CCCC1OC(=O)C(O)(c1ccccc1)c1ccccc1 (stereo unspecified) | inactive: -13.2%
10 | Cc1ccc(C(=O)NCC2(N3CCCCC3)CCCCC2)cc1 | inactive: 6.05%
11 | CC(C)N1C(=O)CC2(CCN(CCOC(=O)C(O)(c3ccccc3)c3ccccc3)CC2)C1=O | inactive: 20.1%
12 | CCN(CC)CC(C)C(C)OC(=O)C(O)(c1ccccc1)c1ccccc1 (stereo unspecified) | inactive: -22.4%
13 | COc1cc(SC)ccc1C(=O)NCC1(N(C)C)CCCCC1 | inactive: 0.79%
14 | CN1[C@@H]2CC[C@H]1CC(OC(=O)C(O)(c1ccccc1)c1ccccc1)C2 (stereo partly specified) | inactive: 6.3%
15 | O=C(NCC1(N2CCCCC2)CCCCC1)c1cc([N+](=O)[O-])ccc1Cl | inactive: 5.63%
16 | CN(C)c1cccc(C(=O)NCC2(N(C)C)CCCCC2)c1 | inactive: 9.47%
17 | CC(C)Oc1ccc(C(=O)NCC2(N(C)C)CCCCC2)cc1 | inactive: -5.44%
18 | O=C(OCCN1CCCC1)C(O)(c1ccccc1)c1ccccc1 | inactive: 14%
19 | COc1ccc(Br)c(C(=O)NCC2(N3CCCCC3)CCCCC2)c1 | inactive: 2.39%
20 | C=C(C)C#CC(O)(C(=O)OC1CCN(C)CC1)c1ccccc1 (stereo unspecified) | inactive: 18.8%
21 | O=C(OC1CN2CCC1CC2)C(CO)(c1ccccc1)c1ccccc1 (stereo unspecified) | inactive: -0.41%
22 | O=C(NCC1(N2CCCCC2)CCCCC1)c1cccc(Cl)c1 | inactive: 15.9%
23 | COc1cccc(C(=O)NCC2(N3CCCCC3)CCCCC2)c1 | inactive: 13.3%
24 | COc1ccc(Cl)cc1C(=O)NCC1(N(C)C)CCCCC1 | inactive: 3.76%
25 | COc1cc(C(=O)NCC2(N(C)C)CCCCC2)c([N+](=O)[O-])cc1OC | inactive: 5.19%
26 | CN(C)C1(CNC(=O)c2ccc(Br)cc2)CCCCC1 | inactive: 4.82%
